Source: patent publication US7271174B2, “Metabolites of tricyclic amides useful for inhibition of G-protein function and methods of treatment of proliferative diseases” (Schering Corporation, priority 2003, dated 2007)

Biological target: purified human farnesyl protein transferase (Homo sapiens, UniProt P49354+P49356)
Test: (H-Ras) Farnesyl Transferase Inhibition assay
Format: biochemical
Settings: transfer of [3H] farnesyl from [3H] farnesyl pyrophosphate to biotin-CVLS peptide; 37° C., 60 minutes; SPA beads
Procedure: Assay Conditions for (H-Ras) FPT
FPT activity was determined by measuring the transfer of [^3H] farnesyl from [^3H] farnesyl pyrophosphate to a biotinylated peptide derived from the C-terminus of H-Ras (biotin-CVLS). […] The reaction mixture was incubated in a Vortemp shaking incubator at 37° C., 45 RPM for 60 minutes and stopped with 150 μL of 0.25 M EDTA containing 0.5% BSA and 1.3 mg/ml Streptavidin SPA beads. […] Percent inhibition was calculated relative to the vehicle control.

Structure (SMILES): NC(=O)N1CCC(CC(=O)N2CCC([C@H]3c4ncc(Br)cc4CCc4cc(Cl)cc(Br)c43)CC2)CC1 [Compound A (Control), reference compound]
- IC50: 2.4 nM
